{"source": "patent US7935366B2", "about": "(priority 2006, dated 2011)", "key": {"[1]": {"system": "rat bone marrow erythrocytes", "assay": "Micronuclei formation in rat bone marrow erythrocytes (geno-toxicity)", "format": "in vivo", "conditions": "FIG. 2", "from_the_text": "[…]. The geno-toxicity assessment of [CaK2Fe(CN)6] and Prussian Blue for the formation of micronuclei (i.e. part of parent nucleus, which is left behind in the cytoplasm as a daughter nuclei, due to damage to chromosomes during cell division). […] It has also been observed that five and ten times of this dose induces marginal increase in the formation of micronuclei."}, "[2]": {"assay": "Whole body retention of ^137Cs, CKF vs Prussian Blue", "format": "in vivo"}, "[3]": {"assay": "Percent binding capacity of *Cs at different pH", "format": "physicochemical"}, "[4]": {"system": "DNA damage", "assay": "Alkaline comet assay", "conditions": "FIG. 3"}}, "note": "This is a selection: effects in other tests are not listed, and their absence says nothing.", "data": [{"substance": "Calcium Potassium Ferrocyanide", "values": [{"measurement": "micronuclei formation, means±SE versus control", "setting": "[1]; all the tested doses", "value": "not significantly different from control"}, {"measurement": "geno-toxicity, micronuclei formation", "setting": "[1]; dose of 5 mg/100 g BW (equivalent to 3.5 g/d/70 Kg adult)", "value": "did not induce any toxicity"}, {"measurement": "geno-toxicity, micronuclei formation", "setting": "[1]; five and ten times the dose of 5 mg/100 g BW", "value": "marginal increase in the formation of micronuclei"}, {"measurement": "effectiveness in *Cs decorporation relative to Prussian Blue", "setting": "[2]; FIG. 1, whole body retention of *Cs, used solely", "value": "twice as effective as Prussian Blue"}, {"measurement": "WHOLE BODY RETENTION - ^137Cs", "setting": "[2]; day 0", "value": 100, "unit": "percent administered dose"}, {"measurement": "WHOLE BODY RETENTION - ^137Cs", "setting": "[2]; day 1", "value": "55 ± 9", "unit": "percent administered dose"}, {"measurement": "WHOLE BODY RETENTION - ^137Cs", "setting": "[2]; day 4", "value": "16 ± 7", "unit": "percent administered dose"}, {"measurement": "WHOLE BODY RETENTION - ^137Cs", "setting": "[2]; day 8", "value": "10 ± 4", "unit": "percent administered dose"}, {"measurement": "WHOLE BODY RETENTION - ^137Cs", "setting": "[2]; day 12", "value": "7 ± 3", "unit": "percent administered dose"}, {"measurement": "WHOLE BODY RETENTION - ^137Cs", "setting": "[2]; day 16", "value": "5 ± 2", "unit": "percent administered dose"}, {"measurement": "WHOLE BODY RETENTION - ^137Cs", "setting": "[2]; day 20", "value": "3 ± 1", "unit": "percent administered dose"}, {"measurement": "WHOLE BODY RETENTION - ^137Cs", "setting": "[2]; day 24", "value": "3 ± 1", "unit": "percent administered dose"}, {"measurement": "WHOLE BODY RETENTION - ^137Cs", "setting": "[2]; day 28", "value": "2 ± 1", "unit": "percent administered dose"}, {"measurement": "speed of removing *Cs from in vivo system", "setting": "[2]; experimental animals", "value": "considerably faster than Prussian blue"}, {"measurement": "binding with *Cs", "setting": "[3]; FIG. 4, neutral pH", "value": "firm binding"}, {"measurement": "PERCENT BINDING CAPACITY of *Cs", "setting": "[3]; pH 2", "value": "99 ± 0.9", "unit": "%"}, {"measurement": "PERCENT BINDING CAPACITY of *Cs", "setting": "[3]; pH 3", "value": "100 ± 0.9", "unit": "%"}, {"measurement": "PERCENT BINDING CAPACITY of *Cs", "setting": "[3]; pH 5", "value": "97 ± 0.9", "unit": "%"}, {"measurement": "PERCENT BINDING CAPACITY of *Cs", "setting": "[3]; pH 6", "value": "97 ± 0.9", "unit": "%"}, {"measurement": "PERCENT BINDING CAPACITY of *Cs", "setting": "[3]; pH 7", "value": "98 ± 0.9", "unit": "%"}, {"measurement": "DNA damage in alkaline comet assay", "setting": "[4]", "value": "do not induce any apparent DNA damage"}]}]}
